Target: recombinant human DPP-1 (Cathepsin C) (Homo sapiens, UniProt P53634)
Experiment: DPP-1 Inhibition Assay (in vitro), fluorogenic substrate GR-AMC
Settings: read-out: DPP-1 Inhibition IC50; 0.15 nM DPP-1, 10 uM GR-AMC, pH 7.0, room temperature; average value where tested multiple times
Procedure: Test compounds were assessed for DPP-1 (Cathepsin C) inhibitory activity using a fluorogenic substrate, GR-AMC (Glycine-Arginine-amino-4-methylcoumarin, Bachem, 1-1215). The amount of amino-methylcoumarin released is proportional to the DPP-1 activity, and the reaction is monitored kinetically with a Molecular Devices plate reader using black 96-well plates.
All compounds were tested under room temperature conditions. The assay buffer consisted of 50 mM HEPES, pH 7.0, 100 mM NaCl, 2 mM glutathione (GSH), and 0.002% TWEEN 20. GSH and TWEEN 20 were added to the buffer fresh daily. Just prior to use, an in-house preparation of recombinant human DPP-1 (240 μM stock, MW 49.6 kD) was diluted 600-fold in assay buffer containing fresh 2 mM dithiothreitol (DTT) to activate the enzyme, then diluted into assay buffer (without DTT) 133-fold for a DPP-1 working solution of 3 nM. Test compounds were diluted in DMSO for 20× their final assay concentrations.
Additions to a 96-well black Costar 3915 plates were as follows: 90 μL of 11 μM GR-AMC, 5 μL test compound (followed by mixing), and 5 μL 3 nM DPP1 to start the reaction. Fluorescent reactions were monitored kinetically at 360 nm excitation, 440 nm emission on a Molecular Devices Spectramax XPS reader. The Softmax Pro software of the reader determined the initial velocity of the selected data (the first 3-5 minutes of the reaction), and the best linear regression fit of the initial kinetic data. Final assay conditions were 0.15 nM DPP-1, 10 uM GR-AMC, 50 mM HEPES, pH 7.0, 100 mM NaCl, 2 mM GSH, 0.002% TWEEN 20, 1 uM DTT, 5.0% DMSO. Initial velocity rates were plotted vs. test compound concentration by use of a four-parameter logistics equation (nonlinear regression, sigmoidal dose-response (variable slope), with fixed Hill (1.0) using GraphPad Prism® software for determination of DPP-1 IC50. Within-run assay coefficient of variation (CV) was generally <10%; between-run CV <20%.
Representative compounds of the present invention were tested according to the procedure as described above, with results as listed in Table 12, below.

By UniProt entry, the sequences of proteins in these tests, tags left out. Residues count along the entry.
UniProt P53634, 25-463 limits assumed: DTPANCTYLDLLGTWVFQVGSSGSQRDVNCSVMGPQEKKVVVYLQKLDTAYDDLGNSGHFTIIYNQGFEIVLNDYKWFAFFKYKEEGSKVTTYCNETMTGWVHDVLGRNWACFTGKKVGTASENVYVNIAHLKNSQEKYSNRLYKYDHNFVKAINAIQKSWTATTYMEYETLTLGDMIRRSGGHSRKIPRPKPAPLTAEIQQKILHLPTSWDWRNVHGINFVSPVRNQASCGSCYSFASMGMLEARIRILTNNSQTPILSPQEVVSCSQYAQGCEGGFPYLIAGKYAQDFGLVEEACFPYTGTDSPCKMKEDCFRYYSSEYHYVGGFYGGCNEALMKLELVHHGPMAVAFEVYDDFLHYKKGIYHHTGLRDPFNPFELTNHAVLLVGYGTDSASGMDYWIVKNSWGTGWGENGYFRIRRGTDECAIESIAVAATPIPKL

Row | Compound | IC50 [nM]
1 | CC[C@H](N)C(=O)NCCCc1cc2cc(C(=O)Nc3ccc4c(c3)OCO4)ccc2o1 | 890
2 | COc1ccc(-c2ccc3[nH]c(C4CCN(C(=O)[C@@H](N)Cc5ccc(Br)s5)CC4)cc3c2)cc1OC | 12000
3 | CC[C@H](N)C(=O)NCCCc1cc2cc(C(=O)Nc3ccc(Cl)cc3)ccc2[nH]1 | 820
4 | N[C@@H](Cc1cccs1)C(=O)N1CCC(c2nc3cc(Br)ccc3[nH]2)CC1 | 710
5 | COc1ccc(NC(=O)c2ccc3[nH]c(CCCNC(=O)[C@@H](N)CC(N)=O)cc3c2)cc1OC | > 10000

These reach a lower IC50. Values come first.

Row | IC50 [nM] | Compound
6 | 160 | COc1ccc(NC(=O)c2ccc3[nH]c(C4CCN(C(=O)[C@@H](N)Cc5cccs5)CC4)cc3c2)cc1OC [Compound 7]
7 | 530 | CC[C@H](N)C(=O)NCCCc1cc2cc(C(=O)Nc3ccc(Cl)c(Cl)c3)ccc2[nH]1
8 | 560 | CC[C@H](N)C(=O)NCCCc1cc2cc(C(=O)Nc3ccc4c(c3)OCCO4)ccc2o1
